By Ki is commonly meant the dissociation constant of the complex between target and ligand, obtained from inhibition or displacement. The low end stands for higher affinity, the high end for lower affinity.

Chains of the proteins cited; added tags and fusions are not shown.
UniProt P10608, whole entry: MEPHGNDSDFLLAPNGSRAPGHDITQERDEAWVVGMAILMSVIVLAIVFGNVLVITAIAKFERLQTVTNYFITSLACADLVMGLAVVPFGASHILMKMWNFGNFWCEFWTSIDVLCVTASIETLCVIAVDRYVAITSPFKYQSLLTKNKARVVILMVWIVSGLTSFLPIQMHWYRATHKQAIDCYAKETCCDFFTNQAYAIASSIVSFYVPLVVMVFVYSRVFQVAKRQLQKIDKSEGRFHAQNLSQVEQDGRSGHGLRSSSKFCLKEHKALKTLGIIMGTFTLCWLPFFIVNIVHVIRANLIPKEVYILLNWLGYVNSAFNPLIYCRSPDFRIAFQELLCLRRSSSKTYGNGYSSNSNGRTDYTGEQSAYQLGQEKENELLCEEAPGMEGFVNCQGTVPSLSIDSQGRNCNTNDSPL
UniProt P18090, whole entry: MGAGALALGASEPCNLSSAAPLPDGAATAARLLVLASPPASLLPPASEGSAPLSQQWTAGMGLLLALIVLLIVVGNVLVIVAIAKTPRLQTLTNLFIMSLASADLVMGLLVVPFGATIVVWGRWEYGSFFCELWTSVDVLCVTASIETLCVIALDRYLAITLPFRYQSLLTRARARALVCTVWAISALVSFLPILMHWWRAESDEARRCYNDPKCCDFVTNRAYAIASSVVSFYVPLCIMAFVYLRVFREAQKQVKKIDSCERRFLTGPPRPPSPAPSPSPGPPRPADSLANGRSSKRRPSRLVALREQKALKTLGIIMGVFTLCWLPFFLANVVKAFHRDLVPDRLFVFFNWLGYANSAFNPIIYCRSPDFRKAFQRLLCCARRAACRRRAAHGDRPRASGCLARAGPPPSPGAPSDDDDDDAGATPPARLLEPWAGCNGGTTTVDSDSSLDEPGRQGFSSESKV
UniProt P28564, whole entry: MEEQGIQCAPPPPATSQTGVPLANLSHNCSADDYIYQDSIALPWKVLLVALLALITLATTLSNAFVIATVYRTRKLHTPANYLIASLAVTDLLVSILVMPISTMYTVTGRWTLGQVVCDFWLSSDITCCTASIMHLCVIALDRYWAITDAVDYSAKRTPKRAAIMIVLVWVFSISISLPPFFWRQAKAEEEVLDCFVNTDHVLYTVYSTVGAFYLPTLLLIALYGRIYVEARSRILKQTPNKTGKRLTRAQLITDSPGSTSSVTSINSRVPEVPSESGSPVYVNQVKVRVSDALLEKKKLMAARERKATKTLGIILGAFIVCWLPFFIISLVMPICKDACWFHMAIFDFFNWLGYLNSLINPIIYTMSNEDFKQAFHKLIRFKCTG

Molecules are shown by their SMILES.

Experimental findings from BindingDB's records for doi:10.1254/jjp.52.195 (Niigata College of Pharmacy, 1990) are described below.

The target in assay [1] is Beta-2 adrenergic receptor (Rattus norvegicus, UniProt P10608).
For assay [2], the target named is Beta-1 adrenergic receptor (Rattus norvegicus, UniProt P18090).
In assay [3] the target is 5-hydroxytryptamine receptor 1B (Rattus norvegicus, UniProt P28564).

With `C=CCc1ccccc1OC[C@@H](O)CNC(C)C` [ALPRENOLOL,(-)], the results for the inhibitory constant (Ki) in assay [1] and in assay [2] were 0.58 nM and 4.17 nM, respectively.
`CC(C)NCC(O)COc1ccc(CC(N)=O)cc1` (centres undefined) [Artrenolol] gave a Ki in assay [3] of more than 10000 nM.
On to `CCCC(=O)Nc1ccc(OCC(O)CNC(C)C)c(C(C)=O)c1` (centres undefined) [N-{3-acetyl-4-[2-hydroxy-3-(propan-2-ylamino)propoxy]phenyl}butanamide], for which, in assay [2], the Ki is 126 nM.
